Assay results reported in patent publication US20050148627A1, “Benzopyran compounds for use in the treatment and prevention of inflammation related conditions” (priority 2003, published 2005).
pIC50: −log10 of the molar value. “And” between values parts separate entries of the source, which are not always exact repeats. Equal entries are not always repeated.

By UniProt entry, the sequences of proteins in these tests, tags left out. Residues count along the entry.
UniProt P23219, 24-599: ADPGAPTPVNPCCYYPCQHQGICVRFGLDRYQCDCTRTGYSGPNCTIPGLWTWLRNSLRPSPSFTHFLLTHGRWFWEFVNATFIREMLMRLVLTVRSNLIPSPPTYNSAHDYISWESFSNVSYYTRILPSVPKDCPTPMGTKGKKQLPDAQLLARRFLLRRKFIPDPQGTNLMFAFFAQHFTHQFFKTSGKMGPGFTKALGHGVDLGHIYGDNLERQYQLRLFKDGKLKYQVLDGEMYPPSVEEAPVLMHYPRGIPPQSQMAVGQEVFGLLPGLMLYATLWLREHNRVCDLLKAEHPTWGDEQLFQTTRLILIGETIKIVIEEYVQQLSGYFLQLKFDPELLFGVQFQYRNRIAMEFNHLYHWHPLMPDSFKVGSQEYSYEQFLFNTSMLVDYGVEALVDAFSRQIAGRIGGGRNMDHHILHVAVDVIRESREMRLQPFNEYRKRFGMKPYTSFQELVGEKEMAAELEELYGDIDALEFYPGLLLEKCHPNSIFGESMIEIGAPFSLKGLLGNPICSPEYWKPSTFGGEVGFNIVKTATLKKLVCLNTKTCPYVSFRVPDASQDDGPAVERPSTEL

Target: COX-1 (Homo sapiens, UniProt P23219)
Assay: biochemical

`Cc1cc(OC(F)(F)F)cc2c1OC(C(F)(F)F)C(C(=O)O)=C2` (racemic) [Example 21b, 8-methyl-6-(trifluoromethoxy)-2-(trifluoromethyl)-2H-chromene-3-carboxylic acid] was tested. Which pIC50 did it give?
Its pIC50 is 5.61 and 5.98.
